Assay results as given in patent US12030872B2, “N-heteroaryl indazole derivatives as LRRK2 inhibitors, pharmaceutical compositions, and uses thereof” (Merck Sharp & Dohme LLC, priority 2018, dated 2024).

Chains of the proteins cited; added tags and fusions are not shown. Residues count along the entry.
UniProt Q5S007, 970-2527 G2019S: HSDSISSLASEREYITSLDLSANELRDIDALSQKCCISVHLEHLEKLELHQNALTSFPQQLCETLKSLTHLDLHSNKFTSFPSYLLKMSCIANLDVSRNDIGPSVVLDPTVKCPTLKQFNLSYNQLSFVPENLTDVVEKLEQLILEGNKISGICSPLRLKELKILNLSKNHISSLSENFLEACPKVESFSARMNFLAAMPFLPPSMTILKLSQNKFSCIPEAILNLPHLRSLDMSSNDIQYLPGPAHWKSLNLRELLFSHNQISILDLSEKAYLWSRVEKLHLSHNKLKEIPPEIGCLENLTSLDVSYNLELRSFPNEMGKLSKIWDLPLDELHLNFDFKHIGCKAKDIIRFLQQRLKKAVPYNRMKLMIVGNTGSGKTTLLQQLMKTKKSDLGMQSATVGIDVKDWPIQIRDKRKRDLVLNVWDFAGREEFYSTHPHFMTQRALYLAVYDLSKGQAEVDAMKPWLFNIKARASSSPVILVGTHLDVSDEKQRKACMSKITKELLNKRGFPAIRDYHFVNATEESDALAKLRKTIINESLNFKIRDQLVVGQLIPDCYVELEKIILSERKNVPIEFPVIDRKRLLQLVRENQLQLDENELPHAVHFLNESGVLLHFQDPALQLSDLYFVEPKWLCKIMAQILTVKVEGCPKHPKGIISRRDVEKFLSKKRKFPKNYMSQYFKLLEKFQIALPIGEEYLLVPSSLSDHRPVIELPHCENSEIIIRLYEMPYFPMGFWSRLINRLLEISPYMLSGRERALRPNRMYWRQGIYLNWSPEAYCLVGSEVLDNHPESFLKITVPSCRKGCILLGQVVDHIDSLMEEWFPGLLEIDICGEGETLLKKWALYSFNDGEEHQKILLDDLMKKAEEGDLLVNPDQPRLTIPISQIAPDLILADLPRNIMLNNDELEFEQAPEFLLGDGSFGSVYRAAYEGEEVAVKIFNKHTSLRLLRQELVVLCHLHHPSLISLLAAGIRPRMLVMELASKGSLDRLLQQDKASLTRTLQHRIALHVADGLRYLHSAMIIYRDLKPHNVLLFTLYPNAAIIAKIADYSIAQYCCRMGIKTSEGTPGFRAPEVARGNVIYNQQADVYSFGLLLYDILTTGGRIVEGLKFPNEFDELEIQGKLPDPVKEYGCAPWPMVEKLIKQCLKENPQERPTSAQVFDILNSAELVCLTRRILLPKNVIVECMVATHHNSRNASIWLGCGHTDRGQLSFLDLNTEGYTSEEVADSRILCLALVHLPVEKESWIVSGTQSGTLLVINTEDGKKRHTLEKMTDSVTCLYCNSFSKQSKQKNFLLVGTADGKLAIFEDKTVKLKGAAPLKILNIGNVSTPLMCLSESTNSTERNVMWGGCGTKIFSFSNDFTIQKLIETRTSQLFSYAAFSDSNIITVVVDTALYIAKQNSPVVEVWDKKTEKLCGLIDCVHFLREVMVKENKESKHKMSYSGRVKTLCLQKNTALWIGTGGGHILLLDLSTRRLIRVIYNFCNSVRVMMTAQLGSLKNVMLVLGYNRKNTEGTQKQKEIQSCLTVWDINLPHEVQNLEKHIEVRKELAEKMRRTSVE

Target: GST-tagged truncated human mutant G2019S LRRK2 (Homo sapiens (Human), UniProt Q5S007, G2019S)
Test: LRRK2 G2019S Km ATP LanthaScreen Assay
Details: read-out: LRRK2 IC50; G2019S LRRK2, 134 μM ATP (Km ATP), LRRKtide substrate; mean IC50 values

| pIC50 | SMILES |
| --- | --- |
| 8.37 | Cc1cc2cnn(-c3cnn(C)c3)c2cc1C1CCN(C2COC2)C[C@H]1F (single isomer, unassigned) [Example 22.1-2, (R,R or S,S)-6-(3-fluoro-1-(oxetan-3-yl)piperidin-4-yl)-5-methyl-1-(1-methyl-1H-pyrazol-4-yl)-1H-indazole] |
| 8.77 | Cn1cc(-n2ncc3cc(Cl)c(C4CCN(C5COC5)CC4F)cc32)cn1 (single isomer, unassigned) [Example 20.2-1, (R,R or S,S)-5-chloro-6-(3-fluoro-1-(oxetan-3-yl)piperidin-4-yl)-1-(1-methyl-1H-pyrazol-4-yl)-1H-indazole] |

pIC50: −log10 of the molar value.
